Measured values from patent US20250122502A1, “Bifunctional Molecules and Methods of Using Thereof” (FLAGSHIP PIONEERING, INC., priority 2021, published 2025).

Chains of the proteins cited; added tags and fusions are not shown. Lines headed by an entry give the natural chain unless they say otherwise; changes in a name come on top.
UniProt Q06187: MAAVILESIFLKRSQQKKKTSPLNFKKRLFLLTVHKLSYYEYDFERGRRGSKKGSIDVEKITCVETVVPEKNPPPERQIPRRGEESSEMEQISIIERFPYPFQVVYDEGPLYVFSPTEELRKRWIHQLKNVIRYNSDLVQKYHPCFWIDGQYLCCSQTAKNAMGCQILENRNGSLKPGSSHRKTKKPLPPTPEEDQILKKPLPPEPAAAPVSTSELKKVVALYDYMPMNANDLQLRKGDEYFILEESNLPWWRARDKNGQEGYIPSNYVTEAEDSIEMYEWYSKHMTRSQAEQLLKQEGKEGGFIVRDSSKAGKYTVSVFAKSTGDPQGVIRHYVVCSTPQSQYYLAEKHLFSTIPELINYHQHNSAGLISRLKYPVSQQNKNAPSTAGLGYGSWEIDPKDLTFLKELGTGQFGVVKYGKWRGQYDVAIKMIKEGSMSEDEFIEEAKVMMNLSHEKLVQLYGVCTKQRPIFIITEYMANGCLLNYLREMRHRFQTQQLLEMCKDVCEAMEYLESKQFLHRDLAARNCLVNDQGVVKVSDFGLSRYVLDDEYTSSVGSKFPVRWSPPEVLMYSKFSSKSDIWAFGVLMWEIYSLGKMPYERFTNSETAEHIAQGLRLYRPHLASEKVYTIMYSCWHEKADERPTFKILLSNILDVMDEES

Target: T1, purified BTK protein and Cy5-labeled IVT RNA (Homo sapiens, UniProt Q06187)
T1 construct: purchased Active Motif 81083
Assay: In vitro ternary complex formation assay (PAGE gel shift)
Type: binding
Settings: 90 minutes room temperature; for supershift of BTK protein band in the presence of Cy5-IVT RNA (ternary complex): 5 pmol ASOi, 1 pmol BTK, 10 pmol Cy5-IVT RNA
Method: In one reaction (#5), 5 pmol antisense RNA oligo of the sequence 5′CGUUAACUAGGCUUUA3′ (hereafter called N33-ASOi) conjugated at the 5′ end with Ibrutinib was mixed in PBS with 1 pmol purified BTK protein (Active Motif #81083), 200 pmol yeast rRNA (as non-specific blocker) and 10 pmol Cy5-labeled IVT RNA of the sequence 5′[…] […] […] AAGGCGAA3′ (SEQ ID NO: 51).
All reactions were incubated at room temperature for 90 minutes protected from light, then mixed with a loading buffer containing final 0.5% SDS and 10% glycerol, and complexes separated by PAGE on a Bis-Tris 4-12% gel including an IRDye700 pre-stained protein molecular weight marker (LiCor). Immediately following electrophoresis, the gel was imaged using a LiCor Odyssey system with the 700 nm channel to identify the position of Cy5-IVT-RNA bands and MW marker. Subsequently, proteins in the gel were stained using InstantBlue colloidal coomassie stain (Expedeon) and re-imaged using transmitted light. The two images were lined up using size markers and lane positions to identify the relative positions of BTK protein bands and Cy5-IVT target RNA. (FIG. 1)

Substance	supershift of BTK protein band in the presence of Cy5-IVT RNA (ternary complex)	increase in MW of the BTK protein band (binary complex formation) (1 pmol BTK protein plus ASOi)
SCR-ASOi: non-complementary RNA oligo 5′AGAGGUGGCGUGGUAG3′ conjugated at the 5′ end with Ibrutinib (5' Ibrutinib conjugate)	complex stayed at arrow B level	–
N33-ASOi: antisense RNA oligo 5′CGUUAACUAGGCUUUA3′ conjugated at the 5′ end with Ibrutinib (5' Ibrutinib conjugate)	supershift	binary complex formation
